# Yeast mating assay 1: variants of the scFv Ab-14

Values reported by Engelhart et al. 2022, doi:10.1038/s41597-022-01779-4 (FLAb copy).

Antigen: PDVDLGDISGINAS, a 14-residue peptide of the SARS-CoV-2 spike HR2 region.

Parent scFv Ab-14: VH joined to VL by a 15-residue (Gly4Ser)3 linker. Changes lie in the heavy chain CDRs alone.
VH: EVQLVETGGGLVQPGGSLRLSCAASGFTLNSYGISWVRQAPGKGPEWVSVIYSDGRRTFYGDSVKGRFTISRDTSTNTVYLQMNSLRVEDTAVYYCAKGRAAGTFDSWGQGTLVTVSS
VL: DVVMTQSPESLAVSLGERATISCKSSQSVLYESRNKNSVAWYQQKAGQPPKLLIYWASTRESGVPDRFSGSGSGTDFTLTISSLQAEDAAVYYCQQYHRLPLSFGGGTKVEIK

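The parent was found by panning a naive human phage display library on the peptide. AAYL49 was designed without a model: most single CDR substitutions and a random sample of double and triple ones. The scFvs were displayed on barcoded MATa yeast, the peptide on MATalpha yeast. Mating (16 h, 30 °C) was followed by selection of diploids and sequencing of their barcodes. Scores were corrected for input abundance and mapped to Kd with protein pairs of known affinity run in the same pool. There are three technical replicates.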

Changes read parent residue, position, new residue, counted from the first residue of the VH shown. Numbers give log10(Kd / nM), so 0 is 1 nM and 3 is 1 µM. Smaller is tighter. Averages over replicates are reported, and they cover detected replicates only. "not detected" means that the variant was in the library but no mating with the target was seen in any replicate; the authors take this as a sign of poor binding, and no number exists. In this assay the parent's reference entry averaged 0.65; its copy inside this library read 4.11 (one replicate of three). Three control strains display no target. For library AAYL49, 15% of the pairings with them gave a signal, with a median of 4.06 and one signal in twenty below 2.83, so weak values seen in few replicates may be background.

changes,"mean, log10 nM",seen in
S35G/A102N/G103S,not detected,0/3
G33I/I51T/R57A,not detected,0/3
Y32E/V50Q/R57D,not detected,0/3
R56P/T58E/F105I,not detected,0/3
S53N/R56D,4.85,1/3
L29H/S35H/I51G,not detected,0/3
L29W/S35Q/S107F,not detected,0/3
R56E/V64L/F105R,not detected,0/3
S31C/S35I/F59I,not detected,0/3
R57M/A101F,not detected,0/3
S35D/G55E/T58V,not detected,0/3
V50F/D54A,not detected,0/3
V64G/D106K,5.65,3/3
L29K/G33L/Y60S,not detected,0/3
R56P/S63A/T104V,not detected,0/3
L29Y/N30F/D106Y,3.19,1/3
S53L/Y60K,4.16,2/3
T58W/G61R/V64N,not detected,0/3
L29T/V64E/K65T,not detected,0/3
Y32H/Y52K/R100Y,not detected,0/3
S63A/V64K,not detected,0/3
L29H/A101I/T104R,not detected,0/3
F27S/T28P/S107K,not detected,0/3
T28F/Y52T/S107A,3.93,1/3
Y32C/D54Y/T104V,not detected,0/3
T28D/Y52W/S107H,2.06,3/3
L29S/R57V/V64L,not detected,0/3
T28F/G103Y,not detected,0/3
G33Q/Y52T/F105S,4.64,1/3

The remaining entries, values ahead:

"mean, log10 nM",seen in,changes
not detected,0/3,N30S/T104P
1.69,3/3,F27M/N30Y/R100S
4.38,1/3,R56S/D62V/A101H
1.11,3/3,S31L/K65Q
not detected,0/3,R56Q/G61Y/R100F
not detected,0/3,T28Y/S63W/R100A
3.93,1/3,S31Y/G55K/G61D
not detected,0/3,S31M/G61Y/G99S
4.74,2/3,R57L/T58G/D62G
5.18,1/3,R57N/S63M/A102H
3.58,1/3,F59Q/Y60S/S63T
not detected,0/3,S31P/V64N/K65A
4.49,3/3,S35C/T58I/G103R
not detected,0/3,G26T/V50D/S53V
3.20,1/3,G33I/S35A/T58A
5.45,1/3,T28K/R57K/D62V
4.16,2/3,V50T/Y52L/G103T
not detected,0/3,G33K/A101G
not detected,0/3,I51Y/F59W/D106R
4.03,3/3,N30P/S31M/R57Q
not detected,0/3,G33P/T58E/Y60E
not detected,0/3,S35G/R57T/S107F
4.77,2/3,T28L/D62R/G99A
4.14,2/3,G26V/I34A/R56W
not detected,0/3,S35N/S53Q/F59Y
not detected,0/3,T28L/G55S/G103V
3.70,3/3,G26N/G55M/T58V
not detected,0/3,S31L/V64F/S107C
4.19,1/3,V50G/G55P/G103Q
not detected,0/3,T28P/S35P/Y60I

A selection of 4 entries from above:

| changes | mean, log10 nM | seen in |
|---|---|---|
| R56P/S63A/T104V | not detected | 0/3 |
| Y32C/D54Y/T104V | not detected | 0/3 |
| N30P/S31M/R57Q | 4.03 | 3/3 |
| F27S/T28P/S107K | not detected | 0/3 |